US8476225B2, “Antiviral compounds” (Gilead Sciences, Inc., priority 2009, dated 2013)

Sequences of proteins named here, by UniProt entry; tags and fusion partners are left off. Residues count along the entry.
UniProt P27958, 1027-1208: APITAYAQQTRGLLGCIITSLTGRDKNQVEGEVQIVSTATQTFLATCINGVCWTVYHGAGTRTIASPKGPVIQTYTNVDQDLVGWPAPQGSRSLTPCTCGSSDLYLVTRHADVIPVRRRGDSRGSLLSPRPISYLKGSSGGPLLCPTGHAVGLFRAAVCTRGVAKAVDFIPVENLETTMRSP

molecular target: HCV NS3 protease (Hepatitis C virus genotype 1a (isolate H77) (HCV), UniProt P27958); assay: biochemical

In order of rising IC50:
1. C=C[C@@H]1C[C@]1(NC(=O)[C@@H]1CN(S(=O)(=O)c2ccc(Br)cc2)CN1C(=O)[C@@H](NC(=O)OC1CCCC1)C(C)(C)C)C(=O)NS(=O)(=O)C1CC1 [Example 14]  2 nM
2. C=C[C@@H]1C[C@]1(NC(=O)[C@@H]1CN(S(=O)(=O)c2ccc(Cl)cc2)CN1C(=O)[C@@H](NC(=O)OC1CCCC1)C(C)(C)C)C(=O)NS(=O)(=O)C1CC1 [Example 19]  2 nM
3. CC(C)(C)OC(=O)N[C@H]1CCCCC/C=C\[C@@H]2C[C@@]2(C(=O)NS(=O)(=O)C2CC2)NC(=O)[C@@H]2CN(c3ccc(-c4ccccc4)cc3)CN2C1=O (stereo in doubt) [Example 60]  2 nM
4. C=C[C@@H]1C[C@]1(NC(=O)[C@@H]1CN(S(=O)(=O)c2ccc(N3CCCCC3)cc2)CN1C(=O)[C@@H](NC(=O)OC1CCCC1)C(C)(C)C)C(=O)NS(=O)(=O)C1CC1 [Example 50]  3 nM
5. C=C[C@@H]1C[C@]1(NC(=O)[C@@H]1CN(S(=O)(=O)c2ccc(C(F)(F)F)cc2)CN1C(=O)[C@@H](NC(=O)OC1CCCC1)C(C)(C)C)C(=O)NS(=O)(=O)C1CC1 [Example 21]  4 nM
6. C=C[C@@H]1C[C@]1(NC(=O)[C@@H]1CN(c2ccc(C3CCCCC3)cc2)CN1C(=O)[C@@H](NC(=O)OC1CCCC1)C(C)(C)C)C(=O)NS(=O)(=O)C1CC1 [Example 38]  5 nM
7. C=C[C@@H]1C[C@]1(NC(=O)[C@@H]1CN(c2ccc(-c3ccccc3)cc2)CN1C(=O)[C@@H](NC(=O)OC(C)(C)C)C(C)(C)C)C(=O)NS(=O)(=O)C1CC1 [Example 58]  5 nM
8. C=C[C@@H]1C[C@]1(NC(=O)[C@@H]1CN(S(=O)(=O)c2ccccc2)CN1C(=O)[C@@H](NC(=O)OC1CCCC1)C(C)(C)C)C(=O)NS(=O)(=O)C1CC1 [Example 7]  5 nM
9. C=C[C@@H]1C[C@]1(NC(=O)[C@@H]1CN(S(=O)(=O)c2cccs2)CN1C(=O)[C@@H](NC(=O)OC1CCCC1)C(C)(C)C)C(=O)NS(=O)(=O)C1CC1 [Example 23]  6 nM
10. C=C[C@@H]1C[C@]1(NC(=O)[C@@H]1CN(S(=O)(=O)c2ccc(C#N)cc2)CN1C(=O)[C@@H](NC(=O)OC1CCCC1)C(C)(C)C)C(=O)NS(=O)(=O)C1CC1 [Example 20]  6 nM
11. C=C[C@@H]1C[C@]1(NC(=O)[C@@H]1CN(c2ccc(N3CCCCC3)cc2)CN1C(=O)[C@@H](NC(=O)OC1CCCC1)C(C)(C)C)C(=O)NS(=O)(=O)C1CC1 [Example 31]  9 nM
12. C=C[C@@H]1C[C@]1(NC(=O)[C@@H]1CN(c2ccc(N3CCOCC3)cc2)CN1C(=O)[C@@H](NC(=O)OC1CCCC1)C(C)(C)C)C(=O)NS(=O)(=O)C1CC1 [Example 32]  10 nM
13. C=C[C@@H]1C[C@]1(NC(=O)[C@@H]1CN(c2ccc(OC)cc2)CN1C(=O)[C@@H](NC(=O)OC1CCCC1)C(C)(C)C)C(=O)NS(=O)(=O)C1CC1 [Example 35]  12 nM
14. C=C[C@@H]1C[C@]1(NC(=O)[C@@H]1CN(CCc2ccccc2)CN1C(=O)[C@@H](NC(=O)OC1CCCC1)C(C)(C)C)C(=O)NS(=O)(=O)C1CC1 [Example 5]  13 nM
15. C=C[C@@H]1C[C@]1(NC(=O)[C@@H]1CN(S(=O)(=O)c2ccccc2Cl)CN1C(=O)[C@@H](NC(=O)OC1CCCC1)C(C)(C)C)C(=O)NS(=O)(=O)C1CC1 [Example 17]  16 nM
16. C=C[C@@H]1C[C@]1(NC(=O)[C@@H]1CN(S(=O)(=O)c2ccccc2Br)CN1C(=O)[C@@H](NC(=O)OC1CCCC1)C(C)(C)C)C(=O)NS(=O)(=O)C1CC1 [Example 61]  20 nM
17. C=C[C@@H]1C[C@]1(NC(=O)[C@@H]1CN(CC(=O)c2ccccc2)CN1C(=O)[C@@H](NC(=O)OC1CCCC1)C(C)(C)C)C(=O)NS(=O)(=O)C1CC1 [Example 4]  21 nM
18. C=C[C@@H]1C[C@]1(NC(=O)[C@@H]1CN(S(=O)(=O)c2ccc3ccccc3c2)CN1C(=O)[C@@H](NC(=O)OC1CCCC1)C(C)(C)C)C(=O)NS(=O)(=O)C1CC1 [Example 11]  22 nM
19. C=C[C@@H]1C[C@]1(NC(=O)[C@@H]1CN(c2ccc(-c3ccc(C#N)cc3)cc2)CN1C(=O)[C@@H](NC(=O)OC1CCCC1)C(C)(C)C)C(=O)NS(=O)(=O)C1CC1 [Example 48]  28 nM
20. C=C[C@@H]1C[C@]1(NC(=O)[C@@H]1CN(S(=O)(=O)c2cccc(Cl)c2)CN1C(=O)[C@@H](NC(=O)OC1CCCC1)C(C)(C)C)C(=O)NS(=O)(=O)C1CC1 [Example 18]  28 nM
21. C=C[C@@H]1C[C@]1(NC(=O)[C@@H]1CN(c2ccc(Br)cc2)CN1C(=O)[C@@H](NC(=O)OC1CCCC1)C(C)(C)C)C(=O)NS(=O)(=O)C1CC1 [Example 29]  41 nM
22. C=C[C@@H]1C[C@]1(NC(=O)[C@@H]1CN(c2ccc(-c3ccc(OC)cc3)cc2)CN1C(=O)[C@@H](NC(=O)OC1CCCC1)C(C)(C)C)C(=O)NS(=O)(=O)C1CC1 [Example 46]  66 nM
23. C=C[C@@H]1C[C@]1(NC(=O)[C@@H]1CN(S(=O)(=O)c2cnc(Cl)c(Br)c2)CN1C(=O)[C@@H](NC(=O)OC1CCCC1)C(C)(C)C)C(=O)NS(=O)(=O)C1CC1 [Example 16]  68 nM
24. C=C[C@@H]1C[C@]1(NC(=O)[C@@H]1CN(c2ccc(-c3cccc(F)c3)cc2)CN1C(=O)[C@@H](NC(=O)OC1CCCC1)C(C)(C)C)C(=O)NS(=O)(=O)C1CC1 [Example 42]  82 nM
25. C=C[C@@H]1C[C@]1(NC(=O)[C@@H]1CN(c2ccc(-c3cccc(OC)c3)cc2)CN1C(=O)[C@@H](NC(=O)OC1CCCC1)C(C)(C)C)C(=O)NS(=O)(=O)C1CC1 [Example 47]  110 nM
26. C=C[C@@H]1C[C@]1(NC(=O)[C@@H]1CN(S(=O)(=O)c2cccc3cccnc23)CN1C(=O)[C@@H](NC(=O)OC1CCCC1)C(C)(C)C)C(=O)NS(=O)(=O)C1CC1 [Example 13]  160 nM
27. C=C[C@@H]1C[C@]1(NC(=O)[C@@H]1CN(C(=O)c2ccccc2)CN1C(=O)[C@@H](NC(=O)OC1CCCC1)C(C)(C)C)C(=O)NS(=O)(=O)C1CC1 [Example 6]  403 nM
28. C=C[C@@H]1C[C@]1(NC(=O)[C@@H]1CN(c2ccc(-c3ccccc3)cc2)C(=O)N1C(=O)[C@@H](NC(=O)OC1CCCC1)C(C)(C)C)C(=O)NS(=O)(=O)C1CC1 [Example 57]  610 nM
29. CCC[C@H](NC(=O)[C@@H]1CN(c2ccc(-c3ccccc3)cc2)CN1C(=O)[C@@H](NC(=O)OC1CCCC1)C(C)(C)C)C(=O)C(=O)NC1CC1 [Example 51]  940 nM
30. C=C[C@@H]1C[C@]1(NC(=O)[C@@H]1CN(c2cc(Cl)nc(OC)n2)CN1C(=O)[C@@H](NC(=O)OC1CCCC1)C(C)(C)C)C(=O)NS(=O)(=O)C1CC1 [Example 54]  1000 nM
31. C=C[C@@H]1C[C@]1(NC(=O)[C@@H]1CN(c2cc(OC)nc(N3CCCCC3)n2)CN1C(=O)[C@@H](NC(=O)OC1CCCC1)C(C)(C)C)C(=O)NS(=O)(=O)C1CC1 [Example 64]  1150 nM
32. C=C[C@@H]1C[C@]1(NC(=O)[C@@H]1CN(c2cc(-c3ccccc3)nc(OC)n2)CN1C(=O)[C@@H](NC(=O)OC1CCCC1)C(C)(C)C)C(=O)NS(=O)(=O)C1CC1 [Example 62]  1420 nM
33. CC(C)(C)[C@H](NC(=O)OC1CCCC1)C(=O)N1CN(Cc2ccccc2)C[C@H]1C(=O)NC(CC1CCC1)C(=O)C(N)=O (stereo partly shown) [Example 52]  4200 nM
34. C=C[C@@H]1C[C@]1(NC(=O)[C@@H]1CN(c2ccc(-c3cnc(N)nc3)cc2)CN1C(=O)[C@@H](NC(=O)OC1CCCC1)C(C)(C)C)C(=O)NS(=O)(=O)C1CC1 [Example 49]  16000 nM
